Source: patent publication US20230226034A1, “PROPHYLACTIC OR THERAPEUTIC AGENT FOR PHOTODERMATOSIS” (MITSUBISHI TANABE PHARMA CORPORATION, priority 2020, published 2023)

The chains behind the UniProt entries cited, without tags or fusion partners. Where a name states a change or a piece, a line headed by the entry shows the natural chain unless it says otherwise.
UniProt Q01727: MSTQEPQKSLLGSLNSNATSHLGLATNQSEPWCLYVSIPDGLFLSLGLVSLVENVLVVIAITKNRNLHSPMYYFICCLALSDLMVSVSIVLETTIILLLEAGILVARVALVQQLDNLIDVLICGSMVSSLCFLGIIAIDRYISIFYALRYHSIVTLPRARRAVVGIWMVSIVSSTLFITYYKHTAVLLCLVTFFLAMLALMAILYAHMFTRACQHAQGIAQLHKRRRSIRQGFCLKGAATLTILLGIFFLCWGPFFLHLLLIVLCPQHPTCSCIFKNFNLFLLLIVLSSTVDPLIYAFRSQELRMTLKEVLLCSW

Molecular target: mouse MC1R (Mus musculus, UniProt Q01727)
Settings: read-out: EC50 (nmol/L) mMC1R; cAMP in HEK293 cells stably expressing mouse MC1R; one-half of Emax of αMSH

αMSH [reference compound] gave an EC50 of 3.17 nmol/L.
